In the experiment the target is Axl (Homo sapiens, UniProt P30530). Kind of experiment: Phospho-Akt in-cell Western assay (inhibition of Axl activity). The note with it: Table 3; Hela cells, Axl antibody cross-linking stimulation, phospho-Akt chemiluminescence. Here is the method: The compounds of the invention were tested in the following assay for their ability to inhibit Axl activity.
Phospho-Akt in-Cell Western Assay […]

The chains behind the UniProt entries cited, without tags or fusion partners. Residues count along the entry.
UniProt P30530, 26-894 limits assumed: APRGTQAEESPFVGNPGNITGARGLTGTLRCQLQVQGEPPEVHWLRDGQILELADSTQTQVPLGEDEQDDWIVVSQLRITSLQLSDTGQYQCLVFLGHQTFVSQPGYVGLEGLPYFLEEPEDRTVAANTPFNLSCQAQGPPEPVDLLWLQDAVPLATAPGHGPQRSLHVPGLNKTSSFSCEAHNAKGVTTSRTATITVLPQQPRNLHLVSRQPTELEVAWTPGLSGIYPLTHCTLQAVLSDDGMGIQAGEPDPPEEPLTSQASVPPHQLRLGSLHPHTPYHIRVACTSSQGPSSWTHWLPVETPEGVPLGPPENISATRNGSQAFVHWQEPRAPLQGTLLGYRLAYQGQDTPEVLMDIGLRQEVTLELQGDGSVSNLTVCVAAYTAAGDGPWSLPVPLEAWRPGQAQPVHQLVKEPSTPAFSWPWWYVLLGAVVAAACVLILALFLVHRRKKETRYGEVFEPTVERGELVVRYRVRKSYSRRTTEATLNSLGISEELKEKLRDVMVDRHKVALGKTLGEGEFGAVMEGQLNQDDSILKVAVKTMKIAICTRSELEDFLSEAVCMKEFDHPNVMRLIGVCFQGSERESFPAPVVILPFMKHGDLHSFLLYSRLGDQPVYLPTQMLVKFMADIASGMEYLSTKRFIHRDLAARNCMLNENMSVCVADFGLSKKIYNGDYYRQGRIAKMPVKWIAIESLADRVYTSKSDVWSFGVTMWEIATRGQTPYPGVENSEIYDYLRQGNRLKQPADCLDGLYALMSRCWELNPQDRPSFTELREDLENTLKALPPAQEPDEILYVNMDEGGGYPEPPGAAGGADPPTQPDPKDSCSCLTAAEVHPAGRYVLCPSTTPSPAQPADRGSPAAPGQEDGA

By IC50 is commonly meant the point on the concentration scale where inhibition reaches its midpoint. `Nc1nc(Nc2ccc(OCCN3CCCC3)cc2)nn1C(=O)c1ccc2c(c1)CCO2` displayed an IC50 below 1000 nM.

These data come from patent US8389557B2, “Triazole derivatives useful as Axl inhibitors” (Rigel Pharmaceuticals, Inc., priority 2005, dated 2013).
